Read-outs that look alike come from different tables or passages of the source.
Biological target: SARS-CoV-2 M^pro (Severe acute respiratory syndrome coronavirus 2, UniProt P0DTD1)
Assay: biochemical
Type: biochemical

Structure (SMILES)	IC50 (IC50 (μM) at S/KM 1/2) [µM]	IC50 (IC50 (μM) at S/KM 1) [µM]	other results
O=C(Oc1cncc(Cl)c1)c1sccc1Cl [WNN2048-F004]	0.32 ± 0.01	–	–
O=C1NC(=O)C(=Cc2ccc(-c3cccc(C(F)(F)F)c3)o2)C(=O)N1 [WNN3953-B007]	0.28 ± 0.08	–	–
COc1ccc(CN2C(=O)NC(=O)/C(=C\c3ccco3)C2=O)cc1 [CDE0972-G011]	–	–	IC50 (Table S1, M^pro inhibitors, 40 nmol/L enzyme, 20 µmol/L substrate, read-out: IC50): 0.267 ± 0.006 µM
O=C1NC(=O)C(=Cc2ccc(-c3cccc(Cl)c3Cl)o2)C(=O)N1 [WNN3989-H007]	–	0.18 ± 0.01	IC50 (IC50 (μM) at S/KM 2): 0.18 ± 0.07 µM
O=C1NC(=O)N(Cc2ccccc2)C(=O)C1=Cc1ccco1 [WNN3797-H008]	–	0.56 ± 0.19	–

Reference: paper PMC9871955, “High-throughput screening of SARS-CoV-2 main and papain-like protease inhibitors” (Protein & Cell, 2022)
